From US7994121B2, “Stable analogs of peptide and polypeptide therapeutics” (Trustees of Tufts College, priority 2003, dated 2011)

Sequences of proteins named here, by UniProt entry; tags and fusion partners are left off. Residues count along the entry.
UniProt P43220, 24-463: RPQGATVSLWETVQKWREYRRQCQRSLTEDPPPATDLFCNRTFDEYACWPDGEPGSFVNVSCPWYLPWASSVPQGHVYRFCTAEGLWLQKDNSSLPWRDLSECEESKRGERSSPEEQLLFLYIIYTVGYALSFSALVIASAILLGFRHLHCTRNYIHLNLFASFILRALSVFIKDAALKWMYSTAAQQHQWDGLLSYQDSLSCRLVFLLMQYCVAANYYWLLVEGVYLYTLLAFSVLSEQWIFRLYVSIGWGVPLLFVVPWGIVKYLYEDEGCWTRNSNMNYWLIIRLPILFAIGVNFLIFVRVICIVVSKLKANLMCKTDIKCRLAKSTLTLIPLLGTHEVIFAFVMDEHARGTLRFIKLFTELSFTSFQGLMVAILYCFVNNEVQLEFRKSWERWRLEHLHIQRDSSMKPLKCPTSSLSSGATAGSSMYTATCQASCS

Molecular target: T1, human GLP-1 receptor (Homo sapiens, UniProt P43220)
T1 construct: expressed in transfected cells; host or cells: COS-7
Test: cAMP production in COS-7 cells transiently transfected with human GLP-1 receptor
Assay type: cell-based
Settings: analog 10 μM vs native GLP-1 0.3 μM, one hour at room temperature
Procedure: Further analysis is provided in the right hand panel which summarizes an assay to ascertain whether GLP-1 (3DMA) potentiates GLP-1 signaling in a manner similar to the native peptide. COS-7 cells (approx 10^6/10 cm plate) were transiently transfected with cDNA encoding the human GLP-1 receptor. One day after transfection, the cells were trypsinized and seeded in 24-well plates (density of approx 10^5/well). Two days following transfection, the cells were incubated for one hour at room temperature either with native GLP-1 (0.3 μM), GLP-1 (3DMA) (10 μM), or in the absence of either peptide. cAMP content, which correlates with receptor-mediated signaling, was measured in the cell lysate by proximity scintillation radioimmunoassay.
FIG. 4 summarizes similar experiments in which the activity of GLP-1 (BM) was measured. Briefly, COS-7 cells (approx 10^6/10 cm plate) were transiently transfected with cDNA encoding the human GLP-1 receptor. One day after transfection, the cells were trypsinized and seeded in 24-well plates (density of approx 10^5/well). Two days following transfection, the cells were incubated for one hour at room temperature either with native GLP-1 (0.3 μM), GLP-1 (BM) (10 μM), or in the absence of either peptide. cAMP content, which correlates with receptor-mediated signaling, was measured in the cell lysate by proximity scintillation radioimmunoassay.

Substance: GLP-1 (BM): GLP1(7-37) analog wherein the P′1 glutamic acid is substituted by 3-butyl-methyl-glycine
- signaling via the GLP-1 receptor (cAMP content): potentiated signaling via the GLP-1 receptor to an extent indistinguishable from native GLP-1; also recorded: substantially identical signaling potential

“Also recorded” adds a separate entry of the source.
